Reference: patent publication US20190314361A1 (Athenex Therapeutics Limited, priority 2018, published 2019)

Tests used:
[1] = Paclitaxel pharmacokinetics in dogs after single oral dose with Compound A; format: in vivo, dog
[2] = Paclitaxel pharmacokinetics in rats after single oral dose with Compound A; format: in vivo, rat
[3] = dogs, single oral dose paclitaxel 6 mg/kg with Compound A 3 mg/kg
[4] = single oral dose paclitaxel 2 mg/kg with Compound A
[5] = single oral dose paclitaxel 4 mg/kg with Compound A
[6] = single oral dose paclitaxel 6 mg/kg with Compound A

For `CC(=O)O[C@H]1C(=O)[C@@]2(C)[C@H]([C@H](OC(=O)c3ccccc3)[C@]3(O)C[C@H](OC(=O)[C@H](O)[C@@H](NC(=O)c4ccccc4)c4ccccc4)C(C)=C1C3(C)C)[C@]1(OC(C)=O)CO[C@@H]1C[C@@H]2O` [Paclitaxel, 5,20-Epoxy-1,2,4,7,10-13-hexahydroxytax-11-en-9-one-4,10-diacetate 2-benzoate 13-ester with (2R,3S)—N-benzoyl-3-phenylisoserine], the “Cmax Paclitaxel” value [1, 4] was 128 ng/mL, the “t1/2 Paclitaxel” value [1, 4] was 7.4 h and the “Cmax Paclitaxel” value [1, 5] was 661 ng/mL. The “t1/2 Paclitaxel” value [1, 5] was 8.1 h, the “Cmax Paclitaxel” value [1, 6] was 1109 ng/mL and the “t1/2 Paclitaxel” value [1, 6] was 7.3 h. The “t1/2 Paclitaxel” value ([2]; single oral dose paclitaxel 5 mg/kg with Compound A) was 8.2 h, the “t1/2 Paclitaxel” value ([2]; single oral dose paclitaxel 10 mg/kg with Compound A) was 8.7 h and the “t1/2 Paclitaxel” value ([2]; single oral dose paclitaxel 20 mg/kg with Compound A) was 7.5 h. The Cmax ([3]; Fasted) was 683.6 ± 174.8 ng/mL and the “AUC Fed/ AUCFasted Ratio” value [3] was 53.1.
